# Apparent affinities of Ab-91 variants for a coronavirus HR2 peptide

Target peptide (SARS-CoV-2 spike, HR2 region): PDVDLGDISGINAS

The variants keep the light chain, the linker and the frameworks of Ab-91 (scFv order VL, the linker GGGGSGGGGSGGGGS, VH).
VL: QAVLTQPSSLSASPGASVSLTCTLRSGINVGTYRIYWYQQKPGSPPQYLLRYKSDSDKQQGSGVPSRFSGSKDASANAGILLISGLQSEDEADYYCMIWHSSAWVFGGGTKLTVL
VH: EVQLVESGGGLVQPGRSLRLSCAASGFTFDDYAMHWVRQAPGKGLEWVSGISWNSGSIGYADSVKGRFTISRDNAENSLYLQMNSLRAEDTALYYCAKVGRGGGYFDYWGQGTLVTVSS

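The parent was found by panning a naive human phage display library on the peptide. In library AAYL51, one, two or three CDR residues were substituted; doubles and triples were drawn at random. In AlphaSeq, yeast of one mating type display the scFv and yeast of the other type display the target. Pairs that bind mate more often; barcode pairs of the diploids are counted by sequencing. The ratio of observed to expected reads was calibrated, replicate by replicate, on BCL2-family standards whose Kd was known from biolayer interferometry. Each pool was mated in three replicate cultures.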

Each variant's VH is given in full.
Values are log10 of the apparent Kd in nM; lower means stronger binding.
Averages over replicates are reported, and they cover detected replicates only.
An entry "nd" has no value in the source: the pair was not observed among the diploids in any replicate. This suggests poor binding but is not conclusive.
Background: pairings of library AAYL51 with three empty control strains gave a value in 21% of cases (median 4.54, 5th percentile 3.26). Values in that range, when seen in few replicates, are hard to tell from nonspecific mating.

{"VH": "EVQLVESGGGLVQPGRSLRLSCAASGFTFDDYAMHWVRQAPGKGLEWVSGISWQSGSIGDADSVKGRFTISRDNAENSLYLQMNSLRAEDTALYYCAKVGRGGGYFLYWGQGTLVTVSS", "log10 Kd (nM), mean": "nd", "replicates with signal": "0/3"}
{"VH": "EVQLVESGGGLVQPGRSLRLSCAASDFTFEMYAMHWVRQAPGKGLEWVSGISWNSGSIGYADSVKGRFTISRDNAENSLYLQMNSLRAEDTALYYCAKVGRGGGYFDYWGQGTLVTVSS", "log10 Kd (nM), mean": "4.28", "replicates with signal": "1/3"}
{"VH": "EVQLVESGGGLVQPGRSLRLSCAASGFTHDDIAMHWVRQAPGKGLEWVSGISWNSGSIGYNDSVKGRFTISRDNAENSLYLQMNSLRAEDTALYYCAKVGRGGGYFDYWGQGTLVTVSS", "log10 Kd (nM), mean": "4.17", "replicates with signal": "1/3"}
{"VH": "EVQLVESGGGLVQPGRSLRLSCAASGFTFDDYAMHWVRQAPGKGLEWVSGISCNSGSIGYADSVKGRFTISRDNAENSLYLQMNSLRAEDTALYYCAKVDRGWGYFDYWGQGTLVTVSS", "log10 Kd (nM), mean": "4.77", "replicates with signal": "1/3"}
{"VH": "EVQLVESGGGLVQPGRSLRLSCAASGFTHDDYAMHWVRQAPGKGLEWVSGISWNSGSIGYADSVKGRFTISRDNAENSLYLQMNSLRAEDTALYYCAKVGVGGLYFDYWGQGTLVTVSS", "log10 Kd (nM), mean": "3.52", "replicates with signal": "1/3"}
{"VH": "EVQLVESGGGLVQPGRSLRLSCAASGFTFDDYAMHWVRQAPGKGLEWVSIISWNNKSIGYADSVKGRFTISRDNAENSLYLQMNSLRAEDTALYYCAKVGRGGGYFDYWGQGTLVTVSS", "log10 Kd (nM), mean": "4.18", "replicates with signal": "1/3"}
{"VH": "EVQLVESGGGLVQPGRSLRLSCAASGFTFDDYAMHWVRQAPGKGLEWVSGISWNSGSIGYLDSVCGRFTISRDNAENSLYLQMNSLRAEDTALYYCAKSGRGGGYFDYWGQGTLVTVSS", "log10 Kd (nM), mean": "nd", "replicates with signal": "0/3"}
{"VH": "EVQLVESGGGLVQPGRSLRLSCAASGFTFDDYAMHWVRQAPGKGLEWVSGISWNSGSLGYADGVKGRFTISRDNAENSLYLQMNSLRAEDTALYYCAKVGRGGGYFDYWGQGTLVTVSS", "log10 Kd (nM), mean": "1.49", "replicates with signal": "3/3"}
{"VH": "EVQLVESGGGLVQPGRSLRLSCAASGFTIDDYAMHWVRQAPGKGLEWVSGMSWNSGSIGYADSVKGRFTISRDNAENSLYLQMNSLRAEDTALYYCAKVGRGWGYFDYWGQGTLVTVSS", "log10 Kd (nM), mean": "4.42", "replicates with signal": "3/3"}
{"VH": "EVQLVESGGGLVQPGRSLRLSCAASGFTFDDYAMHWVRQAPGKGLEWVSGISWQYGSIGYADSVKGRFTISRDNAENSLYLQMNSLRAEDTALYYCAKVGRGGGYFDYWGQGTLVTVSS", "log10 Kd (nM), mean": "3.06", "replicates with signal": "2/3"}
{"VH": "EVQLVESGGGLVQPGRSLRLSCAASQFTFDDYAMHWVRQAPGKGLEWVSGISWNSGSIGYADSVLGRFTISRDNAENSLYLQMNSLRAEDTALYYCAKVGRGAGYFDYWGQGTLVTVSS", "log10 Kd (nM), mean": "4.58", "replicates with signal": "1/3"}
{"VH": "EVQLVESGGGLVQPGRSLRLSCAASGFTFDDYTMHWVRQAPGKGLEWVSGASWNSGSIGYADSVKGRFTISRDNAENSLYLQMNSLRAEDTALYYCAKSGRGGGYFDYWGQGTLVTVSS", "log10 Kd (nM), mean": "4.23", "replicates with signal": "1/3"}
{"VH": "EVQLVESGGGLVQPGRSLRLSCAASGFTFDDYAMHWVRQAPGKGLEWVSGISWNSGSSGYADSVKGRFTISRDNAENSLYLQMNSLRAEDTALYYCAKQGRGGGYFDYWGQGTLVTVSS", "log10 Kd (nM), mean": "5.35", "replicates with signal": "1/3"}
{"VH": "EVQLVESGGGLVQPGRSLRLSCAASGFTFDDYAFHWVRQAPGKGLEWVSGWSGNSGSIGYADSVKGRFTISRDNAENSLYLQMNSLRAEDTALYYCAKVGRGGGYFDYWGQGTLVTVSS", "log10 Kd (nM), mean": "nd", "replicates with signal": "0/3"}

Top 2 of the variants detected in all replicates, tightest first:

{"VH": "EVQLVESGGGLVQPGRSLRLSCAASGFTFDDYAMHWVRQAPGKGLEWVSGISWNSGSLGYADGVKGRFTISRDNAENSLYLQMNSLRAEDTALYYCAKVGRGGGYFDYWGQGTLVTVSS", "log10 Kd (nM), mean": "1.49", "replicates with signal": "3/3"}
{"VH": "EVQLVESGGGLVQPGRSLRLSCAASGFTIDDYAMHWVRQAPGKGLEWVSGMSWNSGSIGYADSVKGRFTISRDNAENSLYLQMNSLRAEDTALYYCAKVGRGWGYFDYWGQGTLVTVSS", "log10 Kd (nM), mean": "4.42", "replicates with signal": "3/3"}

Parent in this assay: reference entry 1.86, copy in this library 0.88.

The measurements come from Engelhart et al. 2022 (doi:10.1038/s41597-022-01779-4) through the FLAb antibody collection.